Tested on: COVID-19 Delta virus
Assay: Lung histopathology of mice infected with COVID-19 Delta virus (treatment)
Details: number of mice with lesion grade, COVID-19 Delta virus infected mice

Compound | Interstitial pneumonia, Mild (High dose (80 mg/kg)) | Interstitial pneumonia, Moderate (High dose (80 mg/kg)) | Interstitial pneumonia, Severe (High dose (80 mg/kg)) | Pulmonary hemorrhage, Mild (High dose (80 mg/kg)) | Pulmonary hemorrhage, Moderate (High dose (80 mg/kg)) | Pulmonary hemorrhage, Severe (High dose (80 mg/kg)) | Pulmonary hemorrhage, Mild (Low dose (40 mg/kg)) | Pulmonary hemorrhage, Moderate (Low dose (40 mg/kg)) | Interstitial pneumonia, Mild (Low dose (40 mg/kg)) | Interstitial pneumonia, Moderate (Low dose (40 mg/kg)) | Interstitial pneumonia, Severe (Low dose (40 mg/kg)) | Pulmonary hemorrhage, Severe (Low dose (40 mg/kg))
COc1cc(O)cc(C2OCC3C(c4ccc(OC5OC(CO)C(O)C(O)C5O)c(OC)c4)OCC23)c1 [Serial No. 1, (7,8,7′,8′)-7,7′-bisepoxy-5′-hydroxy-3,3′hydroxy-bismethoxylignan, 4-O-β-D-glucoside] | 4 | 0 | 0 | 3 | 1 | 0 | 2 | 2 | – | – | – | –
COc1cc([C@H]2OC[C@H]3[C@@H]2CO[C@H]3c2ccc(OC)c(OC)c2)ccc1O [Serial No. 3, phillygenin] | 4 | 0 | 0 | 4 | 0 | 0 | 2 | 2 | 2 | 2 | 0 | 0
